Entries after “also recorded” stand apart in the source; their conditions may differ.
Legend:
[1] = target: T1, NMDARs of spinal dorsal horn neurons (Rattus norvegicus, UniProt P35439+Q00959+Q00960); assay: Electrophysiological recordings in rat spinal cord slices (SNL, Cacna2d1 vector); assay type: cell-based; details: Cacna2d1 vector rats; AP5 application within 5 min
T1 construct: from tissue; host or cells: rat lumbar spinal cord slices (lamina II neurons) and synaptosomes made from them
Method: Electrophysiological recordings in spinal cord slices: Anesthesia was induced in rats or mice with isoflurane and removed the lumbar spinal cords via laminectomy. […] The spinal cord slices were placed in a glass bottom chamber and continuously perfused with Krebs solution at 5.0 ml/min at 34° C. maintained by an inline solution heater and a temperature controller.
It becomes impossible to visualize neurons in other laminas in adult (>10-week-old) rodent spinal cords because of heavy laminar myelination. […] The tip of the puff pipette was placed 150 μm away from the recorded neuron.
In some experiments, the attached dorsal root was electrically stimulated with a stimulating electrode (0.5 ms, 0.6 mA and 0.1 Hz) to evoke monosynaptic excitatory postsynaptic currents (EPSCs). The α-amino-3-hydroxy-5-methyl-4-isoxazolepropionic acid receptor (AMPAR)-mediated EPSCs were recorded at a holding potential of −60 mV in the presence of 10 μM bicuculline and 1 μM strychnine, whereas NMDAR-mediated EPSCs were recorded at +40 mV in the presence of 10 μM 6-cyano-7-nitroquinoxaline-2,3-dione, 10 μM bicuculline, and 1 μM strychnine. […] All signals were recorded using an amplifier (MultiClamp700B; Axon Instruments Inc., Union City, Calif.), filtered at 1-2 kHz, digitized at 10 kHz, and stored for off-line analysis. […]

The chains behind the UniProt entries cited, without tags or fusion partners. Residues count along the entry.
UniProt Q00959, 20-1464 limits assumed: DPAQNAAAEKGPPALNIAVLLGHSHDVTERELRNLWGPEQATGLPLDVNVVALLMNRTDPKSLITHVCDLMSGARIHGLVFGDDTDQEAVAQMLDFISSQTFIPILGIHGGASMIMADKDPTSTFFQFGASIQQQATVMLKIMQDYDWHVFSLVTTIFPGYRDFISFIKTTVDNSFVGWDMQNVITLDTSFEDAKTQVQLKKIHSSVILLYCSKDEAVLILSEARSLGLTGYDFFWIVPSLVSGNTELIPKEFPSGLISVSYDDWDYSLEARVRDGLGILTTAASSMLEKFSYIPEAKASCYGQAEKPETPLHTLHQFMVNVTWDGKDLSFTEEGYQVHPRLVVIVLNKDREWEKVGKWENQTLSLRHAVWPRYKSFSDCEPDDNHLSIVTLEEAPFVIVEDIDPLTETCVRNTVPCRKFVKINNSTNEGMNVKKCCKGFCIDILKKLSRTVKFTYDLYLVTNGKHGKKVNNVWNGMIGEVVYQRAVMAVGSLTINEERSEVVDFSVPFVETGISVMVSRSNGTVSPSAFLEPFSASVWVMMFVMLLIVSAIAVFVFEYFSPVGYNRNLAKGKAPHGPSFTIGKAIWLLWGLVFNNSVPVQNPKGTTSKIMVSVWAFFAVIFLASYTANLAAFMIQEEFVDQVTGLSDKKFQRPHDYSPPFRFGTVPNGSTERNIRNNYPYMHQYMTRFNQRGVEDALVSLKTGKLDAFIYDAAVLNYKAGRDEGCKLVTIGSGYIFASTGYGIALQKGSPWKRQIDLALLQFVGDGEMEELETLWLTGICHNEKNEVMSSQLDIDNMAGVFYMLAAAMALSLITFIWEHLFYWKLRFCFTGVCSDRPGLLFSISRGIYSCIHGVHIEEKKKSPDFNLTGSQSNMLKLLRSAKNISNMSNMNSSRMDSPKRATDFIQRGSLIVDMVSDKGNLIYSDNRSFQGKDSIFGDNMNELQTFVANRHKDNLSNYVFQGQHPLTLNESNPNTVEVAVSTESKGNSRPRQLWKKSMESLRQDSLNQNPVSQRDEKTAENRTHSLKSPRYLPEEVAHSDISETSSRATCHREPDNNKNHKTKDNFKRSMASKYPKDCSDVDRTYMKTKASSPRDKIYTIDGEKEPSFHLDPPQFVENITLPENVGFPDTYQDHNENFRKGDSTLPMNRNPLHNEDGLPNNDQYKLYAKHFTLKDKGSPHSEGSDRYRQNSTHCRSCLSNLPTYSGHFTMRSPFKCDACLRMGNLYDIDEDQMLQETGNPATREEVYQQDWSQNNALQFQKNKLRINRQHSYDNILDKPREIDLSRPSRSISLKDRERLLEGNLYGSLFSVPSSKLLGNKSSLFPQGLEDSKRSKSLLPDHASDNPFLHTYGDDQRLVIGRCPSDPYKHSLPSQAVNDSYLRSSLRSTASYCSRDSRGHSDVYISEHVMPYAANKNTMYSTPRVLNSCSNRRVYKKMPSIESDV
UniProt Q00960, 27-1482: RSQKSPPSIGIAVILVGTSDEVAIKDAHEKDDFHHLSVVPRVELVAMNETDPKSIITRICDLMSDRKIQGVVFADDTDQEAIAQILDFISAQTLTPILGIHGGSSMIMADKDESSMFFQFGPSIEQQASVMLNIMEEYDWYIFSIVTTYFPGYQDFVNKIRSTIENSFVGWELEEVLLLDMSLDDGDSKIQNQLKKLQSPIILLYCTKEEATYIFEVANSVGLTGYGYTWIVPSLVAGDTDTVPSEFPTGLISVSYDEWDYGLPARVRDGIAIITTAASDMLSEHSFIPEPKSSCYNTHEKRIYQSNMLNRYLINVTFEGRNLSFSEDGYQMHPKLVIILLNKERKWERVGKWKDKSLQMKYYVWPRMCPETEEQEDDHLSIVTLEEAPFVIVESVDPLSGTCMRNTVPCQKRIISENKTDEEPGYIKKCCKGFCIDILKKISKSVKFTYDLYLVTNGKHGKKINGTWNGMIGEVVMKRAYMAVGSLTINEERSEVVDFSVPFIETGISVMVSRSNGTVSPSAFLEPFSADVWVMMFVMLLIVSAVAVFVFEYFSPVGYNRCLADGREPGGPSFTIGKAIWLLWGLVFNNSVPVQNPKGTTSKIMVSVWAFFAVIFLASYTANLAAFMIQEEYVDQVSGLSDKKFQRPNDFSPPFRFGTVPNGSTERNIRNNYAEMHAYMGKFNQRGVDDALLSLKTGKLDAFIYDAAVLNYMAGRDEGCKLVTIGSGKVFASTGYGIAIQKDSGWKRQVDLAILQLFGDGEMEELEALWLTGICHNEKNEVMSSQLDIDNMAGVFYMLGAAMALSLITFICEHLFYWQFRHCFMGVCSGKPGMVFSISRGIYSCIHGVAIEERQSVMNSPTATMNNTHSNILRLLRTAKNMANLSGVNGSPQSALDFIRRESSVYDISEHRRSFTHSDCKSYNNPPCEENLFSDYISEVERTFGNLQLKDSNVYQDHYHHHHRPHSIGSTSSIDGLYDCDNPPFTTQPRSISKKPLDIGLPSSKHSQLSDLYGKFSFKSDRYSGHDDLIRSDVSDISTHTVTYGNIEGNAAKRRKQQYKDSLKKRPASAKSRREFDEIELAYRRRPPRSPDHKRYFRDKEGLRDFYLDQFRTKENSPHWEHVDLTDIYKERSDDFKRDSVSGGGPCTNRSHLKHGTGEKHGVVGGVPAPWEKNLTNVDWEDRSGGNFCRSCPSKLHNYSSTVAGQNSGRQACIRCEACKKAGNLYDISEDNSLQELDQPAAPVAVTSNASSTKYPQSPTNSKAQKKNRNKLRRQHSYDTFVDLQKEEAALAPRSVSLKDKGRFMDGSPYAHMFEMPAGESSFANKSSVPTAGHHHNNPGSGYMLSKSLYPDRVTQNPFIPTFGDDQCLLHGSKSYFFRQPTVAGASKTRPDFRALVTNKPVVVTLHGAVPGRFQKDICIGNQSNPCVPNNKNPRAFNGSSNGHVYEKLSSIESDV

[2] = target: T2, NMDARs of spinally projecting PVN neurons (Rattus norvegicus, UniProt P35439+Q00959+Q00960); assay: Recordings of spinally projecting PVN neurons in rat brain slices (Ang II); assay type: cell-based; details: bath AP5 50 μmol/L
T2 construct: from tissue; host or cells: rat hypothalamic slices containing the PVN (Sprague-Dawley, WKY, SHR) and synaptosomes made from them

[3] = target: T3, presynaptic NMDARs of spinal dorsal horn neurons (Rattus norvegicus, UniProt P35439+Q00959+Q00960); assay: Spinal cord slice recordings, morphine-treated rats; assay type: cell-based
T3 construct: from tissue; host or cells: rat lumbar spinal cord slices (lamina II neurons) and synaptosomes made from them

[4] = target: T4, NMDARs of RVLM-projecting PVN neurons (Rattus norvegicus, UniProt P35439+Q00959+Q00960); assay: Recordings of RVLM-projecting PVN neurons in slices of WKY rats and SHRs; assay type: cell-based
T4 construct: from tissue; host or cells: rat hypothalamic slices containing the PVN (Sprague-Dawley, WKY, SHR) and synaptosomes made from them

[5] = target: presynaptic NMDARs of spinal lamina II neurons (Rattus norvegicus, UniProt P35439+Q00959+Q00960)
[6] = paclitaxel-treated rats, AP5 50 μM, pregabalin 20 μM, peptides 1 μM

## (2R)-amino-5-phosphonopentanoate [AP5]
[1]
  increase in the mEPSC frequency induced by Cacna2d1 overexpression: normalized
[2]
  frequency of mEPSCs in vehicle-treated slices: had no effect
  increased mEPSC frequency in slices treated with Ang II plus the control peptide: normalized
  mEPSC frequency in slices treated with Ang II plus pregabalin: had no effect
  mEPSC frequency in slices treated with Ang II plus α2δ-1Tat peptide: had no effect
[2]; Ang II (plus vehicle) slices
  Ang II-induced increase in mEPSC frequency: rapidly reversed; also recorded: readily normalized
[3]
  amplitude or PPR of evoked EPSCs, AP5 after gabapentin incubation: had no significant effect
  amplitude or PPR of evoked EPSCs, AP5 after α2δ-1Tat peptide: had no significant effect
  frequency of mEPSCs, AP5 in α2δ-1Tat peptide-incubated neurons: had no effect
[3]; AP5 50 μM
  PPR of monosynaptic EPSCs, AP5 in control peptide-treated neurons: increased
  amplitude of monosynaptic EPSCs, AP5 in control peptide-treated neurons: markedly reduced
  frequency of mEPSCs, AP5 in control peptide-incubated neurons: significantly reduced
  frequency or amplitude of mEPSCs, subsequent AP5 after gabapentin: had no effect
[3]; AP5 50 μM, gabapentin 100 μM, peptide 1 μM for 60 min
  frequency of mEPSCs in dorsal horn neurons: largely normalized
[3]; AP5 50 μM, gabapentin 100 μM, peptides 1 μM for 60 min
  amplitude of monosynaptic evoked EPSCs: significantly reduced
[3]; vehicle-incubated slices, AP5 50 μM
  paired-pulse ratio (PPR) of monosynaptically evoked EPSCs: increased
[4]; SHRs
  frequency of mEPSCs, subsequent AP5 in slices pretreated with gabapentin: no longer had any effect
[4]; SHRs, AP5 50 μmol L-1
  mEPSCs, further AP5 after α2δ-1Tat peptide: no longer had any effect
[4]; SHRs, AP5 50 μmol L-1, gabapentin 100 μmol L-1, peptides 1 μmol L-1, 60 min
  baseline frequency of mEPSCs of labelled PVN neurons: readily normalized
[4]; WKY rats
  frequency or amplitude of mEPSCs of labelled PVN neurons: had no effect
[5]; paclitaxel-treated rats
  PPR, AP5 in α2δ-1Tat peptide-treated neurons: had no effect
  amplitude of evoked EPSCs, AP5 in control peptide-incubated neurons: returned the amplitude of evoked EPSCs to the level observed in vehicle-treated rats
  amplitude of evoked EPSCs, subsequent AP5 after α2δ-1Tat peptide: had no effect
  frequency of mEPSCs, subsequent AP5 in α2δ-1Tat peptide-treated slices: had no effect
  reduced PPR of evoked EPSCs: reversed
  reduced PPR, AP5 in control peptide-treated neurons: reversed the reduced PPR
[5]; paclitaxel-treated rats, AP5 50 μM
  frequency of mEPSCs, subsequent AP5 in pregabalin-treated neurons: no longer had any effect
[5]; [6]
  increased amplitude of evoked monosynaptic EPSCs: rapidly reversed
  increased frequency of mEPSCs of lamina II neurons: rapidly reversed
[5]; vehicle-treated rats
  PPR of evoked EPSCs: had no effect
[5]; vehicle-treated rats, AP5 50 μM, pregabalin 20 μM, peptides 1 μM
  amplitude of evoked monosynaptic EPSCs: had no effect

From US11787839B2, “Targeting α2δ-1-bound glutamate receptors for treating diseases and disorders” (Board of Regents, The University of Texas System, priority 2017, dated 2023)
